# Yeast mating assay 2: variants of the scFv Ab-95

All variants were tested on one target, the spike HR2 peptide PDVDLGDISGINAS (SARS-CoV-2).

Ab-95 is the parent antibody, in scFv form: VH, then a (GGGGS)3 linker, then VL. The heavy chain is unchanged in all variants.
VH: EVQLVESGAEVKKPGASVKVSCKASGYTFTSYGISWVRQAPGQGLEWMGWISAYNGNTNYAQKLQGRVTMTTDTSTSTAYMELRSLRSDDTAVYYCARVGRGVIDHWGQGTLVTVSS
VL: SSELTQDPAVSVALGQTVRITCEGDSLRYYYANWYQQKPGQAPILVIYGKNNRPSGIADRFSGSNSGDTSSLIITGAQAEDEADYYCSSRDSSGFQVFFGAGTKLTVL

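In library AAYL52, one, two or three CDR residues were substituted; doubles and triples were drawn at random. The assay is AlphaSeq: two haploid yeast populations carry antibody and antigen on their surface. Binding brings cells together so that they mate, and sequencing counts the barcode pairs among the diploids. A regression on co-assayed BCL2-family reference pairs converts the normalised counts of each replicate to an apparent Kd. There are three technical replicates.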

Variants are written as CDR1, CDR2 and CDR3 of the light chain (limits as in the source). Parent: EGDSLRYYYAN, GKNNRPS, SSRDSSGFQVF. Scale: log10 of Kd in nM, estimated from mating counts; low values are strong binders. A pair that was not seen in that replicate is written "n.d."; this usually means weak binding, but a binder can also be missed. Three control strains display no target. For library AAYL52, 28% of the pairings with them gave a signal, with a median of 3.91 and one signal in twenty below 2.90, so weak values seen in few replicates may be background. Also given: how often the same scFv was detected with the empty control strains, with their mean in brackets. Parent in this assay: reference entry 2.31, copy in this library 2.25.

CDR-L1,CDR-L2,CDR-L3,log10 Kd (nM) by replicate,signal with controls
EGDSLRYYYAN,GSNNRPS,SSRDSSAFLVF,n.d. n.d. n.d.,4 of 9 (3.33)
EGDSCRHYYAN,GTNNRPS,SSRDSSGFQVF,n.d. n.d. n.d.,2 of 9 (3.48)
EGDSLQYYYAN,GKNNRPS,SSRDMPGFQVF,2.78 2.97 2.80,5 of 9 (4.02)
EGDSLRSYYAN,GKNNRPS,SSRDSSGFLVF,2.54 2.59 n.d.,3 of 9 (3.78)
EWDSLQYYYAN,GKNNRPS,SSNDSSGFQVF,n.d. n.d. n.d.,3 of 9 (4.36)
YGDSLSYYYAN,GKNNRES,SSRDSSGFQVF,2.80 3.48 3.00,3 of 9 (3.41)
EGDSLRYAYDN,GKNNRPS,SSRDSSGFQVF,n.d. n.d. n.d.,2 of 9 (3.70)
EGDSKRYYAAN,GKNNRPS,SSRDSAGFQVF,2.70 3.77 2.80,2 of 9 (4.17)
EGDSTDYYYAN,GKNNCPS,SSRDSSGFQVF,n.d. 3.20 n.d.,2 of 9 (4.07)
EGDSLRYYYAN,GKNNRPD,SYRDSSGFEVF,n.d. n.d. n.d.,2 of 9 (4.42)
EGDWLRYYYAN,GKNNRPS,PVRDSSGFQVF,3.90 3.27 n.d.,4 of 9 (3.64)
EGDSLRYYYAN,GKVNRQS,SSRDSSGFQVF,n.d. n.d. n.d.,2 of 9 (4.01)
EGDSLRYYYAN,GKNVIPS,SSYDSSGFQVF,n.d. 3.84 n.d.,4 of 9 (3.87)
EGDSLRYYYAN,GKNNRPS,SSRDSRGFQLN,n.d. 3.57 3.15,3 of 9 (4.62)
EGDSLRAYYAN,GKNNRPS,SSRSSSAFQVF,2.31 2.27 n.d.,1 of 9 (3.46)
TGDSLRYYYNN,GKNNRPS,SSKDSSGFQVF,2.84 3.00 2.72,2 of 9 (3.97)
EGDSIPYYYQN,GKNNRPS,SSRDSSGFQVF,4.16 3.76 3.71,5 of 9 (3.80)
EGRSLRYYYAN,GKNNPPS,SSRDQSGFQVF,4.07 4.90 3.99,2 of 9 (3.24)
EHDSLRYYYAN,GKNNRPS,SSRWSSHFQVF,3.32 3.75 n.d.,3 of 9 (3.66)
EWDSLRYYYAN,GKNNRPS,SSRDWSGFQVF,3.98 4.08 n.d.,6 of 9 (3.82)
EGDSLFYYRYN,GKNNRPS,SSRDSSGFQVF,n.d. n.d. n.d.,2 of 9 (4.04)
EGDSLRYYYAN,LENNRPS,ASRDSSGFQVF,4.22 4.34 4.01,2 of 9 (4.41)
NGDSLRYYYAR,GKNNLPS,SSRDSSGFQVF,n.d. n.d. n.d.,2 of 9 (3.37)
EHDSLRYYYAN,FKNNRPS,SSRDGSGFQVF,4.67 n.d. n.d.,3 of 9 (4.77)
EGDSLRYYYAN,GKNNRPS,SARFGSGFQVF,2.29 1.97 1.73,5 of 9 (4.37)
EGDSLRYYYAN,GKNNWPS,SMRDSSGFQRF,n.d. n.d. n.d.,2 of 9 (4.48)
MGDSLRYYYAN,GKKNRPS,SSRDSSGDQVF,4.11 5.25 2.60,3 of 9 (3.56)
NGDSLRYYYAN,GKNNRPS,SSRHSSGFWVF,2.25 2.22 2.21,4 of 9 (3.65)
RGDSLRYYYRN,GKNNRPS,SPRDSSGFQVF,4.67 n.d. n.d.,1 of 9 (2.92)
EGDSLRYYYAN,GKNNRIS,SFRDSSGFPVF,2.85 2.78 2.39,3 of 9 (3.81)

For reference, 5 entries of the list once more:

| CDR-L1 | CDR-L2 | CDR-L3 | log10 Kd (nM) by replicate | signal with controls |
|---|---|---|---|---|
| EGDSIPYYYQN | GKNNRPS | SSRDSSGFQVF | 4.16 3.76 3.71 | 5 of 9 (3.80) |
| EGDSLRYYYAN | LENNRPS | ASRDSSGFQVF | 4.22 4.34 4.01 | 2 of 9 (4.41) |
| NGDSLRYYYAN | GKNNRPS | SSRHSSGFWVF | 2.25 2.22 2.21 | 4 of 9 (3.65) |
| EGDSLRYYYAN | GSNNRPS | SSRDSSAFLVF | n.d. n.d. n.d. | 4 of 9 (3.33) |
| EGDSLRYYYAN | GKNNRPD | SYRDSSGFEVF | n.d. n.d. n.d. | 2 of 9 (4.42) |

Data: MIT Lincoln Laboratory AlphaSeq set, Engelhart et al. 2022, doi:10.1038/s41597-022-01779-4, as distributed in FLAb.